Literature values as cited in PMC5560747, “Computational-experimental approach to drug-target interaction mapping: A case study on kinase inhibitors” (PLoS Computational Biology, 2017).

Chains of the proteins cited; added tags and fusions are not shown. Residues count along the entry.
UniProt P35916, 25-1363: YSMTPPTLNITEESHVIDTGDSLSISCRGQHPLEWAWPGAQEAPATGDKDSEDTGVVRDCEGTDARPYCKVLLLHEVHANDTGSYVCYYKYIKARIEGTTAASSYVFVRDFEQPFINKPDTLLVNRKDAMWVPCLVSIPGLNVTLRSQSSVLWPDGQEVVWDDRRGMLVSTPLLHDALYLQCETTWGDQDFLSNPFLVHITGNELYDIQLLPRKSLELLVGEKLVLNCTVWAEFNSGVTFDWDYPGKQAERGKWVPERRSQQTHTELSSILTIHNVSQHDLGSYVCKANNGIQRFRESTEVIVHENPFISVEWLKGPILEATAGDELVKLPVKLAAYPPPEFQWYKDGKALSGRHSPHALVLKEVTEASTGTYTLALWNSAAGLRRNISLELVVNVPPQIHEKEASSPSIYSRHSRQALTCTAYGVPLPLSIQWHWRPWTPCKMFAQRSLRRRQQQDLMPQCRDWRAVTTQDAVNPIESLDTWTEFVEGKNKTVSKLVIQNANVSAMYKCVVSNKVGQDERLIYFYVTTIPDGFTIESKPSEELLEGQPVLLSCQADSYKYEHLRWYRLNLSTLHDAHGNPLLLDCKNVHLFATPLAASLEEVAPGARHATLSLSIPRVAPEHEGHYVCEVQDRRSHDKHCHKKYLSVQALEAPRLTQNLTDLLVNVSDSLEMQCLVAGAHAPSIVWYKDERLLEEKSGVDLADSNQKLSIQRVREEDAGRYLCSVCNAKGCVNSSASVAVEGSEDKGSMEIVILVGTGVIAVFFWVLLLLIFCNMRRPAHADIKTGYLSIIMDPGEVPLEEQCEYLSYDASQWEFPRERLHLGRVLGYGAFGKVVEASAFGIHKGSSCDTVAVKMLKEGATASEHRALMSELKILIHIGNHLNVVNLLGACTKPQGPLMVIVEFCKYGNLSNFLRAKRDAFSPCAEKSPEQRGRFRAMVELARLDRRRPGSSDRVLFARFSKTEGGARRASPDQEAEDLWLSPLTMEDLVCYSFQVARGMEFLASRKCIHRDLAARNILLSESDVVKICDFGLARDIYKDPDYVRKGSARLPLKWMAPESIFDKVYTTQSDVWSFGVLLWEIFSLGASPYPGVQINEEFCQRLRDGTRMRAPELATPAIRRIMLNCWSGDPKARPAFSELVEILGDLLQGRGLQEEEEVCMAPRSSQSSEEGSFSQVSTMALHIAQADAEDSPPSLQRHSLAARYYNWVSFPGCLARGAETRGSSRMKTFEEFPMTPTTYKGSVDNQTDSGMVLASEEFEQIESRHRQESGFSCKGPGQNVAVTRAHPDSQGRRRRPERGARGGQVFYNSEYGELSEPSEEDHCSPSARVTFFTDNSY

Target: FLT4 (Homo sapiens, UniProt P35916)
Conditions: cited from earlier work

COc1cc2nccc(Oc3ccc(NC(=O)Nc4cc(C)on4)c(Cl)c3)c2cc1OC [TIVOZANIB, Tivozanib]
-LOG(PUBLISHED_VALUE) (from ChEMBL, ref PUBMED_ID 25908516): 8.34 M | pIC50 (read-out: PUBLISHED_VALUE IC50, from ChEMBL, ref PUBMED_ID 25908516): 8.34

pIC50: −log10 of the molar value.
